From BindingDB's records for doi:10.1021/acsmedchemlett.0c00302 (Merck, 2020) come the findings set out here.

Molecules are shown by their SMILES.

This experiment has as its target T1, Histone deacetylase 6 (Homo sapiens, UniProt Q9UBN7).
T1 sequence (Q9UBN7 whole entry): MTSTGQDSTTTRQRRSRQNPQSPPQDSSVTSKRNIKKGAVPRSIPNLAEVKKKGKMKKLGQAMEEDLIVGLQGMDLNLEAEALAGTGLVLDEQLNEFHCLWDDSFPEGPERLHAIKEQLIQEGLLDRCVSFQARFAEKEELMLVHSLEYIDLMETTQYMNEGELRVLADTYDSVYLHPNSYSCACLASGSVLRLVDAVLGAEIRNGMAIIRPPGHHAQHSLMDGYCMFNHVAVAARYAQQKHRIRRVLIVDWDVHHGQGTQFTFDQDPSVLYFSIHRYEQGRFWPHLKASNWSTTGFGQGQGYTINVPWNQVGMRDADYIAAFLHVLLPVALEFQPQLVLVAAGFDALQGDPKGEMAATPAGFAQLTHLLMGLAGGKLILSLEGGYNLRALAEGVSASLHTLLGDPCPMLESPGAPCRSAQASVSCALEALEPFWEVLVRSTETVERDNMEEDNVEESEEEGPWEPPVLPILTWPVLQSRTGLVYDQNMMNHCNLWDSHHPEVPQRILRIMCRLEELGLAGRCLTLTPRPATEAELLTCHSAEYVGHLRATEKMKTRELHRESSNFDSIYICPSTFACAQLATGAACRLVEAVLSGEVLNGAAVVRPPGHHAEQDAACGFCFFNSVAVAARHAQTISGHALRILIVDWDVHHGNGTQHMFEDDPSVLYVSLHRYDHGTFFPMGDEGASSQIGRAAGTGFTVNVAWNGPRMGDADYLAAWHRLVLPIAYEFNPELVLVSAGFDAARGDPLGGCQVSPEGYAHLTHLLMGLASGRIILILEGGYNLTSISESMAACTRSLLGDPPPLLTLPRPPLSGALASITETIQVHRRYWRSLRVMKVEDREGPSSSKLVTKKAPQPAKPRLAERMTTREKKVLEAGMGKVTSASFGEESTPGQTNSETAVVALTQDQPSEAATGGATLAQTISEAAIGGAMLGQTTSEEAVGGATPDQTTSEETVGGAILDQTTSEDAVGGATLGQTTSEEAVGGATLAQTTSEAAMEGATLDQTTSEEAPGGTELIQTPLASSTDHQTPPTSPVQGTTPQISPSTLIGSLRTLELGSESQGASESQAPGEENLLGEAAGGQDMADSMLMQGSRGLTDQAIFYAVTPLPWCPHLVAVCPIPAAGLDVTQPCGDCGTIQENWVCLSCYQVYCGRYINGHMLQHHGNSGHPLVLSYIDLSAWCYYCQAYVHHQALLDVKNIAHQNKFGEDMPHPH

Compound `N[C@@H](CCCCCC(=O)c1ccon1)c1ncc(-c2ccccc2F)[nH]1` yielded an IC50 of over 45 µM.
